A short description of the data set: Octanol/water partition coefficient. The data set is classed as physicochemical. Conditions: Log10 (octanol phase/aqueous phase), aqueous buffer solution of pH 7. An excerpt: Specifically, the octanol/water partition coefficient can be determined by calculation using an equation: Octanol/water partition coefficient=Log10 (concentration in an octanol phase/concentration in an aqueous phase).

sulfasalazine yielded an octanol/water partition coefficient of 2.3.

(Values after patent US11033506B2, “External skin preparation comprising a core-shell structure” (SEKISUI CHEMICAL CO., LTD., priority 2017, dated 2021).)
